## Antibody variant affinities, Ab-14 heavy chain, assay 1

From the AlphaSeq antibody data of Engelhart et al. 2022 (doi:10.1038/s41597-022-01779-4), copy in the FLAb collection.

Antigen: PDVDLGDISGINAS, a 14-residue peptide of the SARS-CoV-2 spike HR2 region.

The variants keep the light chain, the linker and the frameworks of Ab-14 (scFv order VH, the linker GGGGSGGGGSGGGGS, VL).
VH: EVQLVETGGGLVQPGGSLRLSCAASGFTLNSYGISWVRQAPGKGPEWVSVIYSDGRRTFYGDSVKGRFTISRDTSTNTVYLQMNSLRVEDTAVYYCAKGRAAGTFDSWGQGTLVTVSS
VL: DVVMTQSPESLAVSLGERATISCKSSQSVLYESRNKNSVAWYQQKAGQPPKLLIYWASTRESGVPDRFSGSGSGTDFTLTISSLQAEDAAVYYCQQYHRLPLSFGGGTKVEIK

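Variants in AAYL49 differ from the parent at up to three CDR positions; double and triple changes were sampled at random. Affinity was read by AlphaSeq, a pooled yeast mating assay with surface-displayed partners. Binding brings cells together so that they mate, and sequencing counts the barcode pairs among the diploids. Read counts were normalised to the haploid input and turned into Kd by a linear fit to BCL2-family pairs of known affinity, for each replicate. The assay was run in three technical replicates.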

Substitutions are numbered in sequence along the VH above, starting at 1 (not Kabat). All variants listed here change G99 of the VH, counted from its first residue. Each Kd is an estimate from the mating assay, the geometric mean of the replicates in which the pair was seen; lower is stronger. Where no diploid with the target was found in any replicate, the entry reads "no signal": below detection, most likely a poor binder, though not proof of it. Parent in this assay: reference entry 4.4 nM, copy in this library 13 µM (one replicate of three). As a blank, each scFv also met three strains without target: over library AAYL49, 15% of these pairings were detected, typically at 11 µM and seldom below 680 nM. For each scFv, signals with the empty controls are counted beside the result.

* G26D/D54N/G99P: no signal (0 of 3 replicates; controls 0 of 9)
* V50W/R57C/G99I: no signal (0 of 3 replicates; controls 1 of 9)
* R57D/G99F/G103W: no signal (0 of 3 replicates; controls 0 of 9)
* D62K/G99D/D106A: no signal (0 of 3 replicates; controls 2 of 9)
* T58I/G99P/A101C: 120 µM (1 of 3 replicates; controls 0 of 9)
* R56D/V64Y/G99T: no signal (0 of 3 replicates; controls 0 of 9)
* I34A/V64R/G99N: 2.3 µM (1 of 3 replicates; controls 1 of 9)
* I51R/S53C/G99K: 2.2 µM (1 of 3 replicates; controls 0 of 9)
* S35M/G99L/T104W: 440 µM (1 of 3 replicates; controls 0 of 9)
* G99C/R100W/D106E: no signal (0 of 3 replicates; controls 0 of 9)
* R56E/R57W/G99Q: no signal (0 of 3 replicates; controls 0 of 9)
* I51D/G99T/D106G: 35 µM (1 of 3 replicates; controls 5 of 9)
* R56P/G99Q/A101C: no signal (0 of 3 replicates; controls 2 of 9)
* I51K/G99T/T104Y: 940 nM (1 of 3 replicates; controls 1 of 9)
* G99I: 7.7 µM (1 of 3 replicates; controls 4 of 9)
* G55K/K65I/G99H: no signal (0 of 3 replicates; controls 0 of 9)
* G61F/K65S/G99L: 15 µM (1 of 3 replicates; controls 4 of 9)
* S31Y/G99L/D106P: no signal (0 of 3 replicates; controls 3 of 9)
* T58W/G99A/A101G: no signal (0 of 3 replicates; controls 0 of 9)
* F27C/V50F/G99N: no signal (0 of 3 replicates; controls 0 of 9)
* S53K/R56C/G99R: 650 nM (1 of 3 replicates; controls 0 of 9)
* L29W/G33K/G99A: no signal (0 of 3 replicates; controls 0 of 9)
* R56C/G99Y: 20 nM (3 of 3 replicates; controls 1 of 9)
* L29Y/G99L/R100Q: 37 µM (2 of 3 replicates; controls 4 of 9)
* K65R/G99H/D106W: 220 nM (3 of 3 replicates; controls 0 of 9)
* G99A/A102K/S107V: 45 nM (3 of 3 replicates; controls 6 of 9)
* Y32D/D54T/G99S: 11 µM (1 of 3 replicates; controls 1 of 9)
* N30V/V50C/G99F: 24 µM (3 of 3 replicates; controls 5 of 9)
* Y32P/G99E/S107P: no signal (0 of 3 replicates; controls 0 of 9)
* Y32G/S35K/G99W: no signal (0 of 3 replicates; controls 1 of 9)
* R57G/G99H/R100E: 24 µM (2 of 3 replicates; controls 2 of 9)
* F27P/S31V/G99E: 150 nM (3 of 3 replicates; controls 1 of 9)
* G99K: 120 µM (2 of 3 replicates; controls 7 of 9)
* G99E/R100G/F105H: 42 µM (2 of 3 replicates; controls 2 of 9)
* F59E/G99T/R100C: 230 nM (3 of 3 replicates; controls 1 of 9)
* V50Y/G61K/G99T: 6.9 µM (1 of 3 replicates; controls 3 of 9)
* G55H/G99P/D106K: no signal (0 of 3 replicates; controls 1 of 9)
* G61D/G99Y/D106V: no signal (0 of 3 replicates; controls 1 of 9)
* F59Y/G99E/G103M: no signal (0 of 3 replicates; controls 1 of 9)
* G99R/S107E: 36 nM (3 of 3 replicates; controls 3 of 9)
* F27Q/G99P/S107K: no signal (0 of 3 replicates; controls 0 of 9)
* S53W/G99E: no signal (0 of 3 replicates; controls 0 of 9)
* S63G/K65R/G99R: no signal (0 of 3 replicates; controls 0 of 9)
* T28D/L29C/G99K: no signal (0 of 3 replicates; controls 0 of 9)
* D54P/D62Y/G99W: no signal (0 of 3 replicates; controls 1 of 9)
* G26K/L29A/G99A: no signal (0 of 3 replicates; controls 0 of 9)

Repeated from above, the 4 best binders with a signal in all replicates:

* R56C/G99Y: 20 nM (3 of 3 replicates; controls 1 of 9)
* G99R/S107E: 36 nM (3 of 3 replicates; controls 3 of 9)
* G99A/A102K/S107V: 45 nM (3 of 3 replicates; controls 6 of 9)
* F27P/S31V/G99E: 150 nM (3 of 3 replicates; controls 1 of 9)